Test results reported in PubChem BioAssay AID1477 (National Center for Advancing Translational Sciences (NCATS), 2009).
Several values for one entry are separate records, joined by “and”; a condition that tells them apart may be missing. Equal entries are not always repeated. The list shows a part of the results, in another mix than the full data. Results filed as inconclusive are left out. Activity calls are given as the source filed them. Calls come from the whole dose curve; as a rule, active = well fitted curve in the direction sought with a large enough effect; inconclusive = small, poorly fitted or top-dose-only effect, or effect the other way, or another doubt; inactive = no such curve, though single readings can be large or run the other way.

Chains of the proteins cited; added tags and fusions are not shown.
UniProt Q01196, whole entry, looked up: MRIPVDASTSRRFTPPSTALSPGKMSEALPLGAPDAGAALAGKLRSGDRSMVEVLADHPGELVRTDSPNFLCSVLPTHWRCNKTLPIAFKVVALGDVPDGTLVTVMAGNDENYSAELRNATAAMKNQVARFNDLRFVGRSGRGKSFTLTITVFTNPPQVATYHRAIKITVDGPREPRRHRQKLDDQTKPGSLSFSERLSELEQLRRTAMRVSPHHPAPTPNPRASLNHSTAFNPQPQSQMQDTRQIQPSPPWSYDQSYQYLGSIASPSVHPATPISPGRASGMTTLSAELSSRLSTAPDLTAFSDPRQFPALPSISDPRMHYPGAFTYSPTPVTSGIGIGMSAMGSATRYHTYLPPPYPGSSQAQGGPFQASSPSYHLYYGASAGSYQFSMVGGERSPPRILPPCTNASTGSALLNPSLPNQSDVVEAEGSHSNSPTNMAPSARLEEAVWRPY
UniProt Q13951, whole entry, looked up: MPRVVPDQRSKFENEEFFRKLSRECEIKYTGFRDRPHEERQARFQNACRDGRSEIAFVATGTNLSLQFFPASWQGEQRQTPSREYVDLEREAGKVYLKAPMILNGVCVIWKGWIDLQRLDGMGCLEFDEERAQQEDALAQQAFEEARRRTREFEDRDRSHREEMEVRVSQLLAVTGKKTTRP

Target: Runt-related transcription factor 1 (Homo sapiens) + Core-binding factor subunit beta (Homo sapiens) (UniProt Q01196+Q13951)
Assay: qHTS Assay for Compounds Blocking the Interaction Between CBF-beta and RUNX1 for the Treatment of Acute Myeloid Leukemia; note: % of control where 0% means no effect
Details: AlphaScreen CBFb-His/RUNX1-biotin binding, biochemical
[1] = at 59.8 µM (top of the series) unless noted

SMILES: C(Cc1nn[nH]n1)Cc1nn[nH]n1
- activity, negative = inhibition [1]: inactive: 0.295%

SMILES: O=C(OC1CN2CCC1CC2)c1cccc(Cl)c1 (stereo not drawn)
- activity, negative = inhibition [1]: inactive: 2.66%

SMILES: O=[N+]([O-])c1ncn(CCn2cnc([N+](=O)[O-])n2)n1
- activity, negative = inhibition [1]: inactive: 11.3%

SMILES: CC(=O)NC(SC(=S)N(C)C)C(Cl)(Cl)Cl (stereo not drawn)
- activity, negative = inhibition [1]: inactive: -0.121%

SMILES: O=[As](O)(c1ccccc1)c1ccc(O)cc1
- activity, negative = inhibition [1]: inactive: -12.2%

SMILES: C[C@H]1OP(=O)(Oc2ccccc2)[C@H](O)[C@H](O)[C@H]1N=[N+]=[N-] (stereo partly drawn)
- activity, negative = inhibition [1]: inactive: 11.1%

SMILES: O=P(Nc1nc2ccccc2s1)(c1ccccc1)c1ccccc1
- activity, negative = inhibition [1]: inactive: 2.3%

SMILES: CN(C(=O)Cc1ccccc1)[C@H]1CC[C@@]2(CCCO2)C[C@@H]1N1CCCC1
- activity, negative = inhibition [1]: inactive: 7.27%

SMILES: Cc1cc([N+](=O)[O-])cc([N+](=O)[O-])c1O
- activity, negative = inhibition [1]: inactive: -3.79% [at 21.7 µM]

SMILES: O=P(Nc1ccccn1)(c1ccc(Br)cc1)c1ccc(Br)cc1
- activity, negative = inhibition [1]: inactive: 3.17%

SMILES: CCC(C)(OOC(C)(C)C)OOC(C)(C)C
- activity, negative = inhibition [1]: inactive: -4.38%

SMILES: c1nnnn1CCn1cnnn1
- activity, negative = inhibition [1]: inactive: 1.07%

SMILES: O=P(Nc1nccs1)(c1ccccc1)c1ccccc1
- activity, negative = inhibition [1]: inactive: 2.49%

SMILES: CC(C)C(=O)NC(Sc1ccccc1)C(Cl)(Cl)Cl (stereo not drawn)
- activity, negative = inhibition [1]: inactive: -0.973%

SMILES: CC(=O)Nc1ccc(Oc2c([N+](=O)[O-])cc([N+](=O)[O-])cc2[N+](=O)[O-])cc1
- activity, negative = inhibition [1]: inactive: -2.26%

SMILES: CC(=O)Nc1ccc([As](=O)(O)O)c(O)c1
- activity, negative = inhibition [1]: inactive: 17.5%

SMILES: C[C@@H]1C=CCP(=O)(Oc2ccccc2)O1 (stereo partly drawn)
- activity, negative = inhibition [1]: inactive: 6.36%

SMILES: C[C@H]1OP(=O)(Oc2ccccc2)C[C@@H]2O[C@@H]21 (stereo partly drawn)
- activity, negative = inhibition [1]: inactive: 6.37%

SMILES: CC(C)(C)C(=O)NC(Sc1ccccc1)C(Cl)(Cl)Cl (stereo not drawn)
- activity, negative = inhibition [1]: inactive: 6.45%

SMILES: CCOc1ccc(C2=NCC(CBr)S2)cc1 (stereo not drawn)
- activity, negative = inhibition [1]: inactive: -1.64%

SMILES: O=P1(Nc2nc3ccc(Cl)cc3s2)COc2ccccc2O1 (stereo not drawn)
- activity, negative = inhibition [1]: inactive: -3.5%

SMILES: CN(C)C(=O)Oc1noc2ccccc12
- activity, negative = inhibition [1]: inactive: 7.21%

SMILES: O=c1c2cc([N+](=O)[O-])ccc2[nH]c2c([N+](=O)[O-])cc([N+](=O)[O-])cc12
- activity, negative = inhibition [1]: inactive: -18.8%

SMILES: Cc1ccccc1OP(=O)(Nc1ccccn1)Oc1ccccc1C
- activity, negative = inhibition [1]: inactive: -1.8%

SMILES: Cc1ccc(OP(=O)(Nc2ccccn2)Oc2ccc(C)cc2)cc1
- activity, negative = inhibition [1]: inactive: 0.314%

SMILES: CC(=O)NC(SC(=S)N(CC(C)C)CC(C)C)C(Cl)(Cl)Cl (stereo not drawn)
- activity, negative = inhibition [1]: inactive: 0.902%

SMILES: COC(=O)c1cc2c(s1)N=C(c1ccccc1)N(C)P2(=O)N1CCOCC1 (stereo not drawn)
- activity, negative = inhibition [1]: inactive: 0.436%

SMILES: CCC(=O)N1C2C3N(C(=O)CC)C1C1N(C(=O)CC)C(C(N1C(=O)CC)N3C(=O)CC)N2C(=O)CC
- activity, negative = inhibition [1]: inactive: 2.88%

SMILES: O=C(NC1CCS(=O)(=O)C1)NP(=S)(Oc1ccccc1)Oc1ccccc1 (stereo not drawn)
- activity, negative = inhibition [1]: inactive: 7.8%

SMILES: CCNC(=S)/N=C(\N)N[N+](=O)[O-]
- activity, negative = inhibition [1]: inactive: -1.39%

SMILES: CCOC(=O)NC(Sc1ccccc1)C(Cl)(Cl)Cl (stereo not drawn)
- activity, negative = inhibition [1]: inactive: 8.55%

SMILES: Cc1ccc(NP(=O)(Oc2cccc(C)c2)Oc2cccc(C)c2)nc1
- activity, negative = inhibition [1]: inactive: 8.07%

SMILES: c1ccc(-c2nn[nH]n2)c(-c2nn[nH]n2)c1
- activity, negative = inhibition [1]: inactive: 5.01%

SMILES: CCN(N=Nc1nonc1N)c1nonc1N
- activity, negative = inhibition [1]: inactive: 0.499%

SMILES: Nc1cccc2ccc([As](=O)(O)O)cc12
- activity, negative = inhibition [1]: inactive: -8.3%

SMILES: CN(C(=O)Cc1ccc(Cl)c(Cl)c1)[C@H]1CCCC[C@@H]1N1CCCC1
- activity, negative = inhibition (at 21.7 µM (top of the series)): inactive: 0.0174% and inactive: 4.01% and inactive: 5.71%

SMILES: Cc1ccc(NP(=O)(Oc2ccccc2F)Oc2ccccc2F)nc1
- activity, negative = inhibition [1]: inactive: 1.84%

SMILES: CCOP(=O)(Nc1ccccc1)OCC
- activity, negative = inhibition [1]: inactive: 0.0698% and inactive: 1.8%

SMILES: Cc1cc(SC(NC(=O)c2ccc(F)cc2)C(Cl)(Cl)Cl)ncn1 (stereo not drawn)
- activity, negative = inhibition [1]: inactive: 1.92%

SMILES: O=C(O)c1ccccc1[As](=O)(O)O
- activity, negative = inhibition [1]: inactive: 9.22%

SMILES: CC(=O)Nc1ccc([As](=O)(O)O)cc1
- activity, negative = inhibition [1]: inactive: 8.8%

SMILES: O=P(Nc1nc2ccc(Cl)cc2s1)(c1ccccc1)c1ccccc1
- activity, negative = inhibition [1]: inactive: 0.846%

SMILES: CC(C)CC(=O)NC(Sc1ccc(Cl)cc1)C(Cl)(Cl)Cl (stereo not drawn)
- activity, negative = inhibition [1]: inactive: 6.3%

SMILES: Nc1cc(N)c2nonc2c1[N+](=O)[O-]
- activity, negative = inhibition [1]: inactive: 8.21%

SMILES: Cc1c2non([O-])c-2c(C)[n+](=O)[n+]1[O-]
- activity, negative = inhibition [1]: inactive: -2.76%

SMILES: O=C(NC(Sc1ccncn1)C(Cl)(Cl)Cl)c1ccccc1 (stereo not drawn)
- activity, negative = inhibition [1]: inactive: 4.85%

SMILES: Oc1ccccc1CNc1ccccn1
- activity, negative = inhibition [1]: inactive: 0.45%

SMILES: Cc1ccc(OP(=O)(Nc2nccs2)Oc2ccc(C)cc2)cc1
- activity, negative = inhibition [1]: inactive: 3.04%

SMILES: COc1ccccc1OP(=O)(Nc1ccc(C)cn1)Oc1ccccc1OC
- activity, negative = inhibition [1]: inactive: 1.47%

SMILES: Clc1ccc(Cl)c(NC2=NCC(CBr)S2)c1 (stereo not drawn)
- activity, negative = inhibition [1]: inactive: -1.11%

SMILES: CN1CCCC(OC(=O)C(c2ccccc2)c2ccccc2)C1 (stereo not drawn)
- activity, negative = inhibition [1]: inactive: 20.7%

SMILES: NC(=O)c1cc([N+](=O)[O-])cc([N+](=O)[O-])c1N
- activity, negative = inhibition [1]: inactive: 12.1%

SMILES: Cc1ccc(N/C(=N/P(=O)(N2CCOCC2)N2CCOCC2)N2CCOCC2)cc1
- activity, negative = inhibition [1]: inactive: 8.74%

SMILES: CN(C)C(=O)OCCc1n(C)cc[n+]1C
- activity, negative = inhibition [1]: inactive: -6.24%

SMILES: CC(C)=N/N=C(\N)N[N+](=O)[O-]
- activity, negative = inhibition [1]: inactive: 1.67%

SMILES: CC(=O)C1=CCCC2CCC1N2 (stereo not drawn)
- activity, negative = inhibition [1]: inactive: -8.34% and inactive: 16.5%

SMILES: CC1CCN(C(=O)Oc2c(Cl)cc(Cl)c3cccnc23)CC1
- activity, negative = inhibition [1]: inactive: 5.32%

SMILES: Nc1ccc([As](=O)(O)c2ccc(N)cc2)cc1
- activity, negative = inhibition [1]: inactive: -0.287%

SMILES: CCN(/C(=N/P(=O)(N1CCOCC1)N1CCOCC1)N1CCOCC1)c1ccc(OC)cc1
- activity, negative = inhibition [1]: inactive: 2.11%

SMILES: CC(=O)N1C2C3N(C(C)=O)C1C1N(C(C)=O)C(C(N1C(C)=O)N3C(C)=O)N2C(C)=O
- activity, negative = inhibition [1]: inactive: -1.5%

SMILES: O=[N+]([O-])c1cccc2n[nH]nc12
- activity, negative = inhibition [1]: inactive: 6.54%

SMILES: Cc1ccc(NP(=O)(Oc2ccccc2)Oc2ccccc2)nc1
- activity, negative = inhibition [1]: inactive: -3.69%

SMILES: COc1ccc(C2=NCC(CBr)S2)cc1 (stereo not drawn)
- activity, negative = inhibition [1]: inactive: 5.03%

SMILES: O=[N+]([O-])c1cccc(NC2=NCC(CBr)S2)c1 (stereo not drawn)
- activity, negative = inhibition [1]: inactive: 3.75%

SMILES: O=C(O)CNc1ccc([As](=O)(O)O)cc1
- activity, negative = inhibition [1]: inactive: 0.195%

SMILES: CC(C)(C)C(=O)NC(Sc1ccncn1)C(Cl)(Cl)Cl (stereo not drawn)
- activity, negative = inhibition [1]: inactive: 0.593%

SMILES: O=[N+]([O-])c1ncn(CCn2ncnc2[N+](=O)[O-])n1
- activity, negative = inhibition [1]: inactive: 1.8%

SMILES: O=C(Nc1cc([As](=O)(O)O)ccc1O)c1ccccc1
- activity, negative = inhibition [1]: inactive: 5.78%
